{
  "sequences": {"note": "Chains of the proteins cited; added tags and fusions are not shown.", "UniProt P35462, whole entry G9S": "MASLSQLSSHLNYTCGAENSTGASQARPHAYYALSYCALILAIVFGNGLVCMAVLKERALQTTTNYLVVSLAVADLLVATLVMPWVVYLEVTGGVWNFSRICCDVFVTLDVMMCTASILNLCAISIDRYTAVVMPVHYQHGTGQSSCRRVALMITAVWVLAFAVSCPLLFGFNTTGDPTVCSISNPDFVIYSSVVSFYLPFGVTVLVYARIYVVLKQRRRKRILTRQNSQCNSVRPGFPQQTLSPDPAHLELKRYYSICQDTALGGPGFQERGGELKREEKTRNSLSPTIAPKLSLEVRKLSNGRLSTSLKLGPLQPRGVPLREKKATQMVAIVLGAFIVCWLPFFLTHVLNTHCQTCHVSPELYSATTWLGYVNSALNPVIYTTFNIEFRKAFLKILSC"},
  "source": "patent US20060052435A1",
  "about": "“Selective dopamin d3 receptor agonists for the treatment of sexual dysfunction” (priority 2001, published 2006)",
  "molecular_target": "human recombinant D3 (hD3) receptors (Homo sapiens, UniProt P35462, G9S)",
  "data": [
    {"smiles": "CCCN(CCC)[C@@H]1CCc2cc(CS(=O)(=O)c3ccc(OC)cc3)ccc2C1", "note": "[GR218231]", "values": [
      {"measurement": "selectivity for hD3 over hD2s receptors", "setting": "binding", "value": 80, "unit": "fold"},
      {"measurement": "Affinity estimates (pKi ± s.e.m.) hD3", "setting": "n = 3-11", "value": "8.7 ± 0.13"}
    ]}
  ]
}
